Test system: hTregs (CD25+) vs hTeffs, STAT5 phosphorylation
Test: STAT5 phosphorylation in Tregs vs Teffs / conventional CD4 T cells after IL-2
Type: cell-based, human
Conditions: low dose IL-2 (1 ng/ml), Treg vs Teff cells
Source text: FIGS. 1A-1B. […] In mouse Tregs, GRAIL ubiquitinates the same lysine (724), that must be neddylated on cullin5 to allow ubiquitin ligase activity of the SOCS3 CRL. By competing for post-translational modification of cullin5, GRAIL inhibits SOCS3 CRL activity and prolongs pJAK1 activity, thus prolonging pSTAT5 transcriptional activity and Treg function. […] A western blot of cell extracts from Treg or Teff cells following contacting in vitro with a low dose of IL-2. The blots were stained with an antibody specific for phosphorylated STAT5.
In humans and in an animal model for SLE, it is shown that there is a defect in this pathway.

With “IL-2: cytokine interleukin 2; signals regulatory CD4 T cells via the high affinity IL-2 receptor” the “pSTAT5 response (western blot kinetics)” value was “prolonged pSTAT5 response by the Treg cells relative to the Teff cells”.
